In patent US10745393B2, “Small molecular probes, processes and use thereof” (JAWAHARLAL NEHRU CENTRE FOR ADVANCED SCIENTIFIC RESEARCH, priority 2014, dated 2020):

Legend:
d(AATT)5 = assay: Absorption / fluorescence response with self-complementary d(AATT)5 duplex; assay type: binding; settings: probe 10 μM, Tris-HCl buffer
DNA [1] = assay: Comparison of DNA dyes: sequence selectivity and fluorescence of free/DNA bound dye; assay type: binding; settings: fluorescence studies with dsDNAs
DNA [2] = settings: cited from earlier work

Substance | fluorescence with d(AATT)5 compared with (D1)mix and (D2)mix (d(AATT)5) | shift of absorption spectra with d(AATT)5, (D1)mix and (D2)mix (d(AATT)5) | preferential binding affinity, AT-sites versus GC-sites (DNA [1]) | Selectivity (DNA [2]; Table 3, commercial dyes) | Fluorescence qauntum yield (ΦF) DNA bound dye (DNA [2]; Table 3, superscript a, commercial dyes)
(E)-3-(N-Methyl 2-(benzo[d]thiazol-2-yl)vinyl)-7-(bis(2-chloroethyl)amino)-2H-chromen-2-one | maximum fluorescence in presence of d(AATT)5 over (D1)mix and (D2)mix | slight red shift | towards AT-sites than GC-sites | – | –
Hoechst 33258 | – | – | – | AT rich | 0.34 ^a
